Experimental data taken from patent US6800639B2, “Pharmaceutical combination for the treatment of cancer” (Shire BioChem Inc., priority 2001, dated 2004).

[1] = 25 mg/kg i.v. qd×5, non-tumored mice

SMILES: Nc1ccn([C@@H]2CO[C@H](CO)O2)c(=O)n1 [Troxacitabine, (−)-β-L-Dioxolane-Cytidine]
- deaths and weight loss (10 mg/kg i.v. qd×5, non-tumored mice): no deaths or weight loss
- average weight loss on Day 5 [1]: one
- deaths [1]: no deaths
